Protein sequences, listed by entry. Tags and fused reporters are not part of them.
UniProt P21397, whole entry: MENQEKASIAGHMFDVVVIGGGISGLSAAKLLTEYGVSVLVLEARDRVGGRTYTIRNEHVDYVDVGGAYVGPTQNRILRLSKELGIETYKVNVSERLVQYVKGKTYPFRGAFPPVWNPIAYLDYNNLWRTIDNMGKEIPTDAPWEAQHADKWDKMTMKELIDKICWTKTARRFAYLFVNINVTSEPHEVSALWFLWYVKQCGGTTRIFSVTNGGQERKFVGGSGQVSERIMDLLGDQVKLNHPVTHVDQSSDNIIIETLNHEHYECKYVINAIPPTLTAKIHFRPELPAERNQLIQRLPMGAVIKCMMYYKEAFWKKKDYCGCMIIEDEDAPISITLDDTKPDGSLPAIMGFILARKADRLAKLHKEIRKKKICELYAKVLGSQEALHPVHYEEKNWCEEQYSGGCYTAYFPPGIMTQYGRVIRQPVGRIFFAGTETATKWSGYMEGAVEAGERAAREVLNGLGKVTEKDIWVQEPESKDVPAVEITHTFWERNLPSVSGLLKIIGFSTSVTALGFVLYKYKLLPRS

According to ChEMBL document CHEMBL4041501, “Isolation of Acacetin from Calea urticifolia with Inhibitory Properties against Human Monoamine Oxidase-A and -B” (J Nat Prod, 2016):

Target: Amine oxidase [flavin-containing] A (Homo sapiens, UniProt P21397)
Experiment: Inhibition of recombinant human MAO-A assessed as reduction in 4-hydroxyquinoline formation using kynuramine as substrate after 20 mins by fluorometric assay

## NNCCc1ccccc1 [PHENELZINE]
  pIC50: 6.62

pIC50: −log10 of the molar value.
